From US11634443B2, “Treprostinil prodrugs” (United Therapeutics Corporation, priority 2019, dated 2023)

Protein sequences, listed by entry. Tags and fused reporters are not part of them. Lines headed by an entry give the natural chain unless they say otherwise; changes in a name come on top.
UniProt P43116: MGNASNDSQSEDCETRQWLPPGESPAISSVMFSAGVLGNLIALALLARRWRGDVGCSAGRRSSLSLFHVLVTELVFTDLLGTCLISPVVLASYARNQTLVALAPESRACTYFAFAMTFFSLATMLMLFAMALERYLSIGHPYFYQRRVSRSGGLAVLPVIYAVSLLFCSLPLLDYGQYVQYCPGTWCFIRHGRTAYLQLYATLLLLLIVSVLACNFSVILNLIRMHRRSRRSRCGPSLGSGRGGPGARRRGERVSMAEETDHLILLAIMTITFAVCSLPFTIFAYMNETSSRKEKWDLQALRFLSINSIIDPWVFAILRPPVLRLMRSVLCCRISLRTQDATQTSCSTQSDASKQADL

Tests used:
[1] = Plasma stability and formation of treprostinil, human plasma; format: in vitro ADME; conditions: 1 μM, 37° C.
Method: (§1) Studies were carried out in mixed-gender human plasma male Sprague-Dawley rat plasma, and male Beagle dog plasma. All plasma was obtained from Bioreclamation and collected on K2EDTA. Plasma was adjusted to pH 7.4 prior to initiating the experiments. DMSO stocks were first prepared for the test articles. […] The vials were kept in a benchtop Thermomixer® for the duration of the experiment. […] Samples were stored at 4° C. until the end of the experiment. After the final time point was sampled, the plate was mixed and then centrifuged at 3000 rpm for 10 minutes.

[2] = Plasma stability and formation of treprostinil, rat plasma; format: in vitro ADME; conditions: 1 μM, 37° C.
Method: as §1

[3] = Plasma stability and formation of treprostinil, dog plasma; format: in vitro ADME; conditions: 1 μM, 37° C.
Method: as §1

[4] = Stability and formation of treprostinil in simulated intestinal fluid; format: in vitro ADME; conditions: SIF pH 6.8, 1 μM, 37° C.
Method: Studies were carried out in simulated intestinal fluid (SIF). SIF was prepared by dissolving 6.8 g of KH2PO4 in 250 mL of water, mixing, and then adding 77 mL of 0.2 N NaOH and 750 mL of water. […] DMSO stocks were first prepared for the test articles. […] The vials were kept in a benchtop Thermomixer® for the duration of the experiment. A separate tube was dosed for each time point in each matrix. […] Samples were mixed and then immediately stored at 4° C. until the end of the experiment. After the final time point was sampled, the plate was mixed and then centrifuged at 3000 rpm for 10 minutes.

[5] = biological target: T1, prostaglandin E2 (PGE2) receptor 2 (EP2) (Homo sapiens, UniProt P43116); assay: EP2 receptor cAMP assay (agonist mode); format: cell-based; conditions: for Activity, EP2 Relative to Tre: relative to treprostinil EC50 values, * partial agonists or ambiguous dose-response curves, image character = too high to realistically calculate
T1 construct: expressed in transfected cells; host or cells: HEK293T

[6] = biological target: T2, prostaglandin D2 (PGD2) receptor 1 (DP1) (Homo sapiens, UniProt Q13258); assay: DP1 receptor cAMP assay (agonist mode); format: cell-based; conditions: for Activity, DP1 Relative to Tre: relative to treprostinil EC50 values, * partial agonists or ambiguous dose-response curves
T2 construct: expressed in transfected cells; host or cells: HEK293T
T2 sequence (Q13258 1-359): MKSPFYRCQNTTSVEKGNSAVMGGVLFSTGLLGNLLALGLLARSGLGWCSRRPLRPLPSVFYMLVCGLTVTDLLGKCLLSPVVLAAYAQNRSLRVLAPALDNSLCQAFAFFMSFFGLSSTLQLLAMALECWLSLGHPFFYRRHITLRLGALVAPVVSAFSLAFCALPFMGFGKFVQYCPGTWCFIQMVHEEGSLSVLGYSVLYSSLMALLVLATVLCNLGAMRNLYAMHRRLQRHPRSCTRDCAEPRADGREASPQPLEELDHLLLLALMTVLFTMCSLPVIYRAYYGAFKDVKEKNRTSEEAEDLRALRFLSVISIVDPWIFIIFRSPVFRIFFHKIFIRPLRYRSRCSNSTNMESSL

[7] = Table 20, agonist mode, NC = too inactive to realistically calculate, * partial agonists or odd dose-response curves
[8] = Table 24, image character = too high to realistically calculate

Row | Substance | Percent Remaining ([4]; 0 min) [%] | Percent Remaining ([4]; 15 min) [%] | Percent Remaining ([4]; 30 min) [%] | Percent Remaining ([4]; 60 min) [%] | Percent Remaining ([4]; 120 min) [%] | Activity, DP1 Relative to Tre [6, 8] | Activity, DP1 Relative to Tre ([6]; Table 25) | further results
1 | treprostinil diacetate [Prodrug LXXII] | 100 | 111 | 107 | 108 | 109 | 561x | 561x | Percent Remaining ([1]; 0 min): 100%; Percent Remaining ([1]; 15 min): 106%; Percent Remaining ([1]; 30 min): 106%; Percent Remaining ([1]; 60 min): 102%; Percent Remaining ([2]; 0 min): 100%; Percent Remaining ([2]; 15 min): 107%; Percent Remaining ([2]; 30 min): 107%; Percent Remaining ([3]; 0 min): 100%; Percent Remaining ([3]; 30 min): 102%; Percent Remaining ([3]; 60 min): 107%; EC50 Fold Different from Treprostinil, EP2 Receptor [5, 7]: 133x*; Activity, EP2 Relative to Tre ([5]; Table 24): 133x*; Activity, EP2 Relative to Tre ([5]; Table 25): 133x*; EC50 Fold Different from Treprostinil, DP1 Receptor [6, 7]: 561x*
2 | treprostinil dicarbonate [Prodrug LXXI] | 100 | 96.2 | 100 | 91.9 | 83.5 | 2181x* | 2181x* | –
